Sequences of proteins named here, by UniProt entry; tags and fusion partners are left off. Residues count along the entry.
UniProt P47871, 26-477: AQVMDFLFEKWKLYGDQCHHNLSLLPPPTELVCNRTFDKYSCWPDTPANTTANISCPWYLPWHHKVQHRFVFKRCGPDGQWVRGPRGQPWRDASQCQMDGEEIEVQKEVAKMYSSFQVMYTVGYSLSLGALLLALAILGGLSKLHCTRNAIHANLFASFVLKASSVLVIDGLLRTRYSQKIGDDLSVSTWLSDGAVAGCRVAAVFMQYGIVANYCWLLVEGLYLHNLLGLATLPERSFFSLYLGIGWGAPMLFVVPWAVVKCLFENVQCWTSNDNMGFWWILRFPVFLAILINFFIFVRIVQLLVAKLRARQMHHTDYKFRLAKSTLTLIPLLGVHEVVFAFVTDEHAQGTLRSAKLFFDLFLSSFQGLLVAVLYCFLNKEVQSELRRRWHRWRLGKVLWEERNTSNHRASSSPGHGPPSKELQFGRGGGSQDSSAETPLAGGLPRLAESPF
UniProt P43220, 24-463: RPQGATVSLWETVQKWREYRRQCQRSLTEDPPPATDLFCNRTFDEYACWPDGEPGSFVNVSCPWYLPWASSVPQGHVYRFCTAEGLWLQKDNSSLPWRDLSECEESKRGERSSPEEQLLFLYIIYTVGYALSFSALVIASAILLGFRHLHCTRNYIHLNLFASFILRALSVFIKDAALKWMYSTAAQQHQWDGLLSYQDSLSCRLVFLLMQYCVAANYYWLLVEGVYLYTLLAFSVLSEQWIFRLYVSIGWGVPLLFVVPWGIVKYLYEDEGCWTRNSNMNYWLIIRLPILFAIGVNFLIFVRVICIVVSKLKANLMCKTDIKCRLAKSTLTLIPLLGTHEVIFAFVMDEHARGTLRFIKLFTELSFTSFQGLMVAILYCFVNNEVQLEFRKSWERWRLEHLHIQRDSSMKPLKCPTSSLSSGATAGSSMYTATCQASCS

In US20250129135A1, “Multi-Agonist and Use Thereof” (priority 2021, published 2025):

Experiments:
Human GIP R = target: T1, Human GIP R (Homo sapiens, UniProt P48546); assay: cAMP (HTRF) activity in CHO cells stably overexpressing GIP receptor; type: cell-based; conditions: for Human GIP R Rel. A (Relative Activity): EC50 of human GIP / EC50 of compound
T1 construct: expressed in transfected cells; host or cells: CHO
T1 sequence (P48546 22-466): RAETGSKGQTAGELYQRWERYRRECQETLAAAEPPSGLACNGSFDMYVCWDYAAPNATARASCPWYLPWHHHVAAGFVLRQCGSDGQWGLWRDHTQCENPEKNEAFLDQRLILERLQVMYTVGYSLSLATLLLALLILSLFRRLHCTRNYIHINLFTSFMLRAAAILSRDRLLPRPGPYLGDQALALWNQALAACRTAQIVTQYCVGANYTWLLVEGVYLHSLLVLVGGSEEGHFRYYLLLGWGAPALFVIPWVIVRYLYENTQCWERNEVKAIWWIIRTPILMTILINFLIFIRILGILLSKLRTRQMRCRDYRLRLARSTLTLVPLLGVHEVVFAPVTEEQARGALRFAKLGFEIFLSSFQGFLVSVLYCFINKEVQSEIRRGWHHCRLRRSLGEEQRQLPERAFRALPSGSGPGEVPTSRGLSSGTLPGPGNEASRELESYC
Method in brief: (§1)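 Cells in HBSS are exposed to compound for 60 min at room temperature, followed by 60 min with detection reagent. EC50 (nM) is taken from concentration-response curves.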

Human GCG R = target: T2, Human GCG R (Homo sapiens, UniProt P47871); assay: cAMP (HTRF) activity in HEK-293 cells stably overexpressing human GCG receptor; type: cell-based; conditions: for Human GCG R Rel. A (Relative Activity): EC50 of human GCG / EC50 of compound
T2 construct: expressed in transfected cells; host or cells: HEK-293
Method in brief: as §1

RIN-m5F cells = type: cell-based, rat; conditions: for EC50: cAMP, at least 3 independent tests, read-out: EC50 on RIN-m5F rat pancreatic islet tumor cells; for Rel. A (Relative Activity) on RIN-m5F: relative to GLP-1(7-37)
Method in brief: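 After 60 min room-temperature exposure of HBSS-suspended RIN-m5F cells to compound and another 60 min with detection reagent, cellular cAMP level was determined.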

3T3-L1 adipocytes = conditions: for EC50: read-out: EC50 on mouse 3T3-L1 adipocyte, cAMP, at least 3 independent tests; for Rel. A (Relative Activity) on 3T3-L1 adipocyte: relative to GIP
Method in brief: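 Compound-induced cAMP was measured in mature 3T3-L1 adipocytes after 60 min room-temperature exposure to a 10-concentration, 3-fold dilution series, followed by 60 min with kit detection reagent and curve fitting. Differentiation used IBMX/dexamethasone/insulin (5 days), insulin with 10 uM rosiglitazone (3 days), then 2–3 days in 10% FBS.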

[1] = system: human primary liver cells; type: cell-based; conditions: for EC50: cAMP, at least 3 independent tests, read-out: EC50 on human primary liver cells; for Rel. A (Relative Activity) on human primary liver cells: relative to GCG
Method in brief: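 cAMP readout after 60 min with detection reagent, following 60 min room-temperature compound incubation. Cells were primary human liver cells thawed at 37° C and resuspended in HBSS.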

C57 BL/6J DIO mice = assay: In vivo pharmacodynamics in high-fat diet induced obesity (DIO) mice; set-up: species or system mouse; conditions: Mean±SEM; for Weight change: Table 6-1; for LDL-C / TC (total cholesterol) / TG (plasma triglycerides): Table 7-1
Description: High-fat diet induced obesity (DIO) mice have characteristics such as obesity, elevated blood sugar, insulin resistance, and lipid abnormalities, all of which are very significant metabolic syndromes similar to a human body. The effects of the compounds of the present application on body weight, food intake, blood sugar, and lipids in C57 BL/6J DIO mice were studied.
Obesity was induced in mice by feeding with a high-fat diet (60 kcal % of calories from fat). […] After grouping, one animal was raised in each cage for one week, during which each of the animals was injected subcutaneously (S.C.) with a solvent (1×PBS, 5 ml/kg) to pre-adapt the experimental operation process.
After the preparation of animals, vehicle control or compounds were administered to groups of animals by subcutaneous injection, in which the compounds were dissolved in 1×PBS, the dosage was 5 ml/kg, and the administration operation was started at 9:00 am and conducted once every three days (Q3D) for 15 days. Throughout the entire experimental study, animal weight and food intake were measured daily before administration, and compared with initial weight and food intake of the same animal before administration to calculate a percentage change in animal weight (%) and cumulative food intake, so as to evaluate the impact of compounds on changes in body weight and food intake.
At the end point of the experiment (Day 15), the body weight of the mice was measured, and then fasting blood glucose was measured by taking blood from the tail tip of broken tail without anesthesia. After the blood collection, the animals were anesthetized with CO2 and euthanized. Then, blood was taken from the heart and plasma was separated by centrifugation. The plasma was used to measure total cholesterol (TC), low-density lipoprotein cholesterol (LDL-C), triglycerides (TG), and blood insulin content. The liver was separated for homogenization, and then centrifuged to obtain the supernatant for determining triglyceride content in the liver.
All results were expressed in Mean±SEM, and the results were analyzed by one-way ANOVA using GraphPad Prism 5 software, followed by Dunnett's post hoc test compared to the Vehicle control group. The difference at the p<0.05 level was considered statistically significant.

Human GLP-1R = Human GLP-1R (Homo sapiens, UniProt P43220); assay: cAMP (HTRF) activity in HEK-293 cells stably overexpressing human GLP-1 receptor; type: cell-based; set-up: expressed in transfected cells; host or cells: HEK-293; conditions: for Human GLP-1R Rel. A (Relative Activity): EC50 of human GLP-1 (7-37) / EC50 of compound
Method in brief: as §1

Structure (SMILES) | Human GIP R Rel. A (Relative Activity) (Human GIP R) | Human GCG R Rel. A (Relative Activity) (Human GCG R) | EC50 (RIN-m5F cells) | Rel. A (Relative Activity) on RIN-m5F (RIN-m5F cells) | EC50 (3T3-L1 adipocytes) | Rel. A (Relative Activity) on 3T3-L1 adipocyte (3T3-L1 adipocytes) | EC50 [1] | Rel. A (Relative Activity) on human primary liver cells [1] | Human GLP-1R Rel. A (Relative Activity) (Human GLP-1R) | also measured
CC[C@H](C)[C@H](NC(=O)[C@H](Cc1ccccc1)NC(=O)[C@H](C)NC(=O)C(C)(C)NC(=O)[C@H](CCC(N)=O)NC(=O)[C@H](C)NC(=O)[C@H](CCCCNC(=O)COCCOCCNC(=O)COCCOCCNC(=O)CC[C@H](NC(=O)CCCCCCCCCCCCCCCCCCC(=O)O)C(=O)O)NC(=O)[C@H](CCCCN)NC(=O)[C@H](CC(=O)O)NC(=O)[C@H](CC(C)C)NC(=O)[C@](C)(CC(C)C)NC(=O)[C@@H](NC(=O)[C@H](CO)NC(=O)[C@H](Cc1ccc(O)cc1)NC(=O)[C@H](CC(=O)O)NC(=O)[C@H](CO)NC(=O)[C@@H](NC(=O)[C@](C)(Cc1ccccc1F)NC(=O)[C@@H](NC(=O)CNC(=O)[C@H](CCC(N)=O)NC(=O)C(C)(C)NC(=O)[C@@H](N)Cc1ccc(O)cc1)[C@@H](C)O)[C@@H](C)O)[C@@H](C)CC)C(=O)N[C@@H](CCC(=O)O)C(=O)N[C@@H](Cc1ccccc1)C(=O)N[C@@H](CC(C)C)C(=O)N[C@@H](CC(C)C)C(=O)N[C@@H](CCC(=O)O)C(=O)NC(C)(C)C(=O)N[C@@H](Cc1c[nH]cn1)C(=O)N1CCC[C@H]1C(=O)N[C@@H](CO)C(=O)N[C@@H](CO)C(=O)NCC(=O)N[C@@H](C)C(=O)N1CCC[C@H]1C(=O)N1CCC[C@H]1C(=O)N1CCC[C@H]1C(=O)N[C@@H](CO)C(N)=O [Compound 20] | 3016.67% | 247.83% | 0.267 nM | 386.52% | 0.447 nM | 850.56% | 0.846 nM | 459.93% | 440.00% | Liver TG (C57 BL/6J DIO mice; Table 9-1, 3 nmol/kg, Day 15): 26.7 ± 2.81 mg; EC50 (Human GLP-1R): 0.01 nM
CC[C@H](C)[C@H](NC(=O)[C@H](Cc1ccccc1)NC(=O)[C@H](C)NC(=O)C(C)(C)NC(=O)[C@H](CCC(N)=O)NC(=O)[C@H](C)NC(=O)[C@H](CCCCNC(=O)COCCOCCNC(=O)COCCOCCNC(=O)CC[C@H](NC(=O)CCCCCCCCCCCCCCCCCCC(=O)O)C(=O)O)NC(=O)[C@H](CCCCN)NC(=O)[C@H](CC(=O)O)NC(=O)[C@H](CC(C)C)NC(=O)[C@H](Cc1ccccc1)NC(=O)[C@@H](NC(=O)[C@H](CO)NC(=O)[C@H](Cc1ccc(O)cc1)NC(=O)[C@H](CC(=O)O)NC(=O)[C@H](CO)NC(=O)[C@@H](NC(=O)[C@](C)(Cc1ccccc1F)NC(=O)[C@@H](NC(=O)CNC(=O)[C@H](CCC(N)=O)NC(=O)C(C)(C)NC(=O)[C@@H](N)Cc1ccc(O)cc1)[C@@H](C)O)[C@@H](C)O)[C@@H](C)CC)C(=O)N[C@@H](CCC(=O)O)C(=O)N[C@@H](Cc1ccc(O)cc1)C(=O)N[C@@H](CC(C)C)C(=O)N[C@@H](CC(C)C)C(=O)N[C@@H](CCC(=O)O)C(=O)NCC(=O)NCC(=O)N1CCC[C@H]1C(=O)N[C@@H](CO)C(=O)N[C@@H](CO)C(=O)NCC(=O)N[C@@H](CCC(N)=O)C(=O)N1CCC[C@H]1C(=O)N1CCC[C@H]1C(=O)N1CCC[C@H]1C(=O)N[C@@H](CO)C(N)=O [Compound 21] | 2262.50% | 228.00% |  | 540.31% |  | 173.69% |  | 782.90% | 880.00% | Liver TG (C57 BL/6J DIO mice; Table 9-2, 3 nmol/kg, Day 15): 41.4 ± 6.33 mg
CC[C@H](C)[C@H](NC(=O)[C@H](Cc1ccccc1)NC(=O)[C@H](C)NC(=O)C(C)(C)NC(=O)[C@H](CCC(N)=O)NC(=O)[C@H](C)NC(=O)[C@H](CCCCNC(=O)COCCOCCNC(=O)COCCOCCNC(=O)CC[C@H](NC(=O)CCCCCCCCCCCCCCCCCCC(=O)O)C(=O)O)NC(=O)[C@H](CCCCN)NC(=O)[C@H](CC(=O)O)NC(=O)[C@H](CC(C)C)NC(=O)[C@](C)(CC(C)C)NC(=O)[C@@H](NC(=O)[C@H](CO)NC(=O)[C@H](Cc1ccc(O)cc1)NC(=O)[C@H](CC(=O)O)NC(=O)[C@H](CO)NC(=O)[C@@H](NC(=O)[C@](C)(Cc1ccccc1F)NC(=O)[C@@H](NC(=O)CNC(=O)[C@H](CCC(N)=O)NC(=O)C(C)(C)NC(=O)[C@@H](N)Cc1ccc(O)cc1)[C@@H](C)O)[C@@H](C)O)[C@@H](C)CC)C(=O)N[C@@H](CCC(=O)O)C(=O)N[C@@H](Cc1ccccc1)C(=O)N[C@@H](CC(C)C)C(=O)N[C@@H](CC(C)C)C(=O)N[C@@H](CCC(=O)O)C(=O)NCC(=O)NCC(=O)N1CCC[C@H]1C(=O)N[C@@H](CO)C(=O)N[C@@H](CO)C(=O)NCC(=O)N[C@@H](CCC(N)=O)C(=O)N1CCC[C@H]1C(=O)N1CCC[C@H]1C(=O)N1CCC[C@H]1C(=O)N[C@@H](CO)C(N)=O [Compound 22] | 2585.71% | 335.29% | 0.119 nM | 867.23% | 0.475 nM | 800.42% | 0.654 nM | 594.95% | 733.33% | EC50 (Human GIP R): 0.007 nM; EC50 (Human GCG R): 0.017 nM; Weight change (C57 BL/6J DIO mice; 3 nmol/kg s.c. Q3D for 15 days): −20.3 ± 1.54%; Weight change (C57 BL/6J DIO mice; 10 nmol/kg s.c. Q3D for 15 days): −28.9 ± 2.28%; Weight change (C57 BL/6J DIO mice; 30 nmol/kg s.c. Q3D for 15 days): −50.5 ± 1.45%; LDL-C (C57 BL/6J DIO mice; 3 nmol/kg, Day 15): 0.63 ± 0.070 mM; TC (total cholesterol) (C57 BL/6J DIO mice; 3 nmol/kg, Day 15): 3.77 ± 0.353 mM; TG (plasma triglycerides) (C57 BL/6J DIO mice; 3 nmol/kg, Day 15): 0.84 ± 0.051 mM; LDL-C (C57 BL/6J DIO mice; 30 nmol/kg, Day 15): 0.48 ± 0.047 mM; TC (total cholesterol) (C57 BL/6J DIO mice; 30 nmol/kg, Day 15): 2.46 ± 0.076 mM; TG (plasma triglycerides) (C57 BL/6J DIO mice; 30 nmol/kg, Day 15): 0.59 ± 0.075 mM; Blood sugar (fasting blood glucose) (C57 BL/6J DIO mice; Table 8-1, 3 nmol/kg, Day 15): 99.4 ± 5.65 mg/dL; Insulin (blood) (C57 BL/6J DIO mice; Table 8-1, 3 nmol/kg, Day 15): 24.7 ± 7.45 mIU/L
